Reference: patent US9192560B2, “Stable composition comprising an anti-ageing compound and a solvent” (CHANEL PARFUMS BEAUTE, priority 2012, dated 2015)

Assay: Diacetylresveratryl thioctate stabilization test in candidate solvents (solubility at t0 and a day later)

## PPG-15 stearyl ether
Diacetylresveratryl thioctate in the named solvent, a day later, ambient temperature
  Solubility 1 D/AT: Precipitate
Diacetylresveratryl thioctate in the named solvent, initial, ambient temperature
  Solubility t0/AT: Insoluble
Stabilization of diacetylresveratryl thioctate by the named solvent
  Stability: No
